From patent US20250230193A1, “CYCLIC COMPOUND HAVING SELECTIVE KRAS INHIBITORY EFFECT ON HRAS AND NRAS” (CHUGAI SEIYAKU KABUSHIKI KAISHA, priority 2022, published 2025)

Legend:
[1] = target: GDP-bound NRAS wild-type protein (Homo sapiens, UniProt P01111); assay: Binding to NRAS by surface plasmon resonance (SPR), Single Cycle Kinetics
[2] = target: GDP-bound HRAS wild-type protein (Homo sapiens, UniProt P01112); assay: Binding to HRAS by surface plasmon resonance (SPR), Single Cycle Kinetics
[3] = test system: human lung cancer strain NCI-H441; settings: read-out: NCI-H441 IC50; NCI-H441 cells, 4 days, CellTiter-Glo

CCO[C@@H]1C[C@H]2C(=O)NC3(CCC3)C(=O)N(C)[C@@H](C3CCCC3)C(=O)N(C)[C@H](C(=O)N(C)C)CC(=O)N(C)[C@@H](CC(C)C)C(=O)N[C@@H]([C@@H](C)CC)C(=O)N(C)CC(=O)N(C)[C@H]3CC(C)=C(C)CN(C3=O)[C@@H](Cc3ccc(C(F)(F)F)cc3)C(=O)N(C)CC(=O)N[C@@H](CCc3cc(F)c(C(F)(F)F)c(F)c3)C(=O)N2C1 [PP1046]
NRAS/KRAS (ratio of KD value with respect to NRAS to KD value with respect to KRAS) ([1]; KD ratio, GDP-bound NRAS wild-type vs GDP-bound KRAS wild-type): C (A compound having a KD ratio of 0.1 or more and less than 3 is denoted as C)
HRAS/KRAS (ratio of KD value with respect to HRAS to KD value with respect to KRAS) ([2]; KD ratio, GDP-bound HRAS wild-type vs GDP-bound KRAS wild-type): C (A compound having a KD ratio of 0.1 or more and less than 3 is denoted as C)
IC50 [3]: 109 nM

CCO[C@@H]1C[C@H]2C(=O)NC3(CCC3)C(=O)N(C)[C@@H](C3CCCC3)C(=O)N(C)[C@H](C(=O)N(CC)CC)CC(=O)N(C)[C@@H](CC3CC3)C(=O)N[C@@H]([C@@H](C)CC)C(=O)N(C)CC(=O)N(C)[C@H]3C/C=C\CCN(C3=O)[C@@H](Cc3ccc(C(F)(F)F)cc3)C(=O)N(C)CC(=O)N[C@@H](CCc3cc(F)c(C(F)(F)F)c(F)c3)C(=O)N2C1 [PP1307]
NRAS/KRAS (ratio of KD value for GDP-bound NRAS wild-type protein to KD value for KRAS) ([1]; KD ratio class): A (a compound having 10 or more and less than 20 is denoted as A)
HRAS/KRAS (ratio of KD value for GDP-bound HRAS wild-type protein to KD value for KRAS) ([2]; KD ratio class): A (a compound having 10 or more and less than 20 is denoted as A)

CC[C@H](C)[C@@H]1NC(=O)[C@H](COC)N(C)C(=O)C[C@@H](C(=O)N(C)CC)N(C)C(=O)[C@H](C2CCCC2)N(C)C(=O)C2(CC(C)(C)C2)NC(=O)[C@@H]2C[C@H](C)CN2C(=O)[C@H](CCc2ccc(C(F)(F)F)c(OC)c2)NC(=O)CN(C)C(=O)[C@H](Cc2ccc(C)cc2)N2CC/C=C\C[C@@H](C2=O)N(C)C(=O)CN(C)C1=O [PP2504]
IC50 [3]: 12.9 nM

CCC[C@H]1C(=O)N[C@@H]([C@@H](C)CC)C(=O)N(C)CC(=O)N(C)[C@H]2C/C=C\CCN(C2=O)[C@@H](Cc2ccc(C)cc2)C(=O)N(C)CC(=O)N[C@@H](CCc2cc(F)c(C(F)(F)F)c(F)c2)C(=O)N2CC3(CC3)C[C@H]2C(=O)NC2(CC(C)(C)C2)C(=O)N(C)[C@@H](CC(C)C)C(=O)N(C)[C@H](C(=O)N(C)C)CC(=O)N1C [PP3004]
NRAS/KRAS (ratio of KD value with respect to GDP-bound NRAS wild-type protein to KD value with respect to KRAS) ([1]; KD ratio NRAS/KRAS, GDP-bound wild-type proteins): A (a compound having 10 or more and less than 20 is denoted as A)
HRAS/KRAS (ratio of KD value with respect to GDP-bound HRAS wild-type protein to KD value with respect to KRAS) ([2]; KD ratio HRAS/KRAS, GDP-bound wild-type proteins): A (a compound having 10 or more and less than 20 is denoted as A)
IC50 [3]: 19.2 nM
